Data published in PMC9747124 (Clinical and Translational Science, 2022).

How the values were obtained:
[1] = Population PK model of evobrutinib; assay type: in vivo, human
patients with RMS = assay type: in vivo, human

C=CC(=O)N1CCC(CNc2ncnc(N)c2-c2ccc(Oc3ccccc3)cc2)CC1 [evobrutinib, Evobrutinib]
D1 (duration of zero order input) ([1]; final PK model, week 48, fasted): 0.241 h
Increase of duration of the zero-order input with food compared with when fasted ([1]; population PK model covariate effect): 441%
AUC0-24,SS associated with T1 Gd+/T2 lesion reduction (patients with RMS; total T1 Gd+ and new/enlarging T2 lesions at weeks 12-24): 468 ng·h/mL
Exposure (AUC) at which maximal response in T1 Gd+ and new/enlarging T2 lesion count was achieved (patients with RMS; weeks 12-24): > 400 ng·h/mL
